The assay concerns rhesus monkeys. Put plainly: Choice between food pellet and intravenous remifentanil infusion.

Take methocinnamox: the “time until remifentanil (largest dose only) was chosen again” value (after 1.0 mg/kg MCAM, one monkey) is recorded as 3 days. Under “after a single injection of MCAM, one monkey”, the “time until sensitivity to remifentanil returned to control” value came to 5 days. In addition, the “choice between food and remifentanil after antagonist” value (beginning 24 hours after 1.0 mg/kg MCAM, one monkey (FIG. 5)) is reported as “chose exclusively food for the next two sessions”.

The values above are taken from patent US11123334B2 (priority 2018, dated 2021).
